# Test results: PMC11079024, “Identification of a family of species-selective complex I inhibitors as potential anthelmintics” (Nature Communications, 2024)
# Columns and labels:
# L1 wild-type C. elegans = details: […]; for KCN survival assay value relative to DMSO control, Mean: mean of replicates
# [1] = tested on: P. hermaphrodita complex I; assay: In vitro complex I activity assay, P. hermaphrodita mitochondria; format: biochemical, Phasmarhabditis hermaphrodita
structure (smiles),measurement,setting,value
CC(C)Cc1ccc(C(C)c2nc3ccccc3n2C)cc1 (stereo not drawn) [NPD8790],Relative Motility,"L1 wild-type C. elegans; 50 μM compound, worm motility 3 hours after removal of KCN, relative to DMSO controls, single biological replicate",0.046
same,"KCN survival assay value relative to DMSO control, Mean",L1 wild-type C. elegans; dose 0.2 µM,1.038
same,"KCN survival assay value relative to DMSO control, Mean",L1 wild-type C. elegans; dose 0.4 µM,1.025
same,"KCN survival assay value relative to DMSO control, Mean",L1 wild-type C. elegans; dose 0.8 µM,0.981
same,"KCN survival assay value relative to DMSO control, Mean",L1 wild-type C. elegans; dose 1.6 µM,1.047
same,"KCN survival assay value relative to DMSO control, Mean",L1 wild-type C. elegans; dose 3.1 µM,1.037
same,"KCN survival assay value relative to DMSO control, Mean",L1 wild-type C. elegans; dose 6.3 µM,1.001
same,"KCN survival assay value relative to DMSO control, Mean",L1 wild-type C. elegans; dose 12.5 µM,0.717
same,"KCN survival assay value relative to DMSO control, Mean",L1 wild-type C. elegans; dose 25 µM,0.059
same,"KCN survival assay value relative to DMSO control, Mean",L1 wild-type C. elegans; dose 50 µM,0.046
same,"KCN survival assay value relative to DMSO control, Mean",L1 wild-type C. elegans; dose 100 µM,0.020
same,in vitro complex I activity relative to solvent control,"[1]; 0.0001 µM, Mean",110.924%
same,in vitro complex I activity relative to solvent control,"[1]; 0.0001 µM, single replicate",120.583% and 108.711% and 103.477%
same,in vitro complex I activity relative to solvent control,"[1]; 0.0005 µM, Mean",123.891%
same,in vitro complex I activity relative to solvent control,"[1]; 0.0005 µM, single replicate",118.727% and 144.312% and 108.635%
same,in vitro complex I activity relative to solvent control,"[1]; 0.001 µM, Mean",103.622%
same,in vitro complex I activity relative to solvent control,"[1]; 0.001 µM, single replicate",95.252% and 119.501% and 96.112%
same,in vitro complex I activity relative to solvent control,"[1]; 0.0025 µM, Mean",105.133%
same,in vitro complex I activity relative to solvent control,"[1]; 0.0025 µM, single replicate",100.747% and 116.799% and 97.853%
same,in vitro complex I activity relative to solvent control,"[1]; 0.005 µM, Mean",118.617%
same,in vitro complex I activity relative to solvent control,"[1]; 0.005 µM, single replicate",119.619% and 121.920% and 114.313%
same,in vitro complex I activity relative to solvent control,"[1]; 0.013 µM, Mean",106.866%
same,in vitro complex I activity relative to solvent control,"[1]; 0.013 µM, single replicate",111.256% and 113.417% and 95.924%
same,in vitro complex I activity relative to solvent control,"[1]; 0.025 µM, Mean",111.679%
same,in vitro complex I activity relative to solvent control,"[1]; 0.025 µM, single replicate",113.063% and 115.968% and 106.005%
same,in vitro complex I activity relative to solvent control,"[1]; 0.06 µM, Mean of replicates",118.982%
same,in vitro complex I activity relative to solvent control,"[1]; 0.06 µM, single replicate",137.771% and 122.148% and 97.026%
same,in vitro complex I activity relative to solvent control,"[1]; 0.063 µM, Mean",110.716%
same,in vitro complex I activity relative to solvent control,"[1]; 0.063 µM, single replicate",126.946% and 113.171% and 92.030%
same,in vitro complex I activity relative to solvent control,"[1]; 0.125 µM, Mean",103.927%
same,in vitro complex I activity relative to solvent control,"[1]; 0.125 µM, single replicate",118.679% and 101.285% and 91.817%
same,in vitro complex I activity relative to solvent control,"[1]; 0.13 µM, Mean of replicates",109.002%
same,in vitro complex I activity relative to solvent control,"[1]; 0.13 µM, single replicate",130.134% and 101.338% and 95.535%
same,in vitro complex I activity relative to solvent control,"[1]; 0.313 µM, Mean",112.221%
same,in vitro complex I activity relative to solvent control,"[1]; 0.313 µM, Mean of replicates",120.745%
same,in vitro complex I activity relative to solvent control,"[1]; 0.313 µM, single replicate",133.127% and 114.716% and 114.392% and 123.548% and 108.409% and 104.706%
same,in vitro complex I activity relative to solvent control,"[1]; 0.625 µM, Mean",67.375%
same,in vitro complex I activity relative to solvent control,"[1]; 0.625 µM, Mean of replicates",64.457%
same,in vitro complex I activity relative to solvent control,"[1]; 0.625 µM, single replicate",67.387% and 72.409% and 53.576% and 75.221% and 71.892% and 55.012%
same,in vitro complex I activity relative to solvent control,"[1]; 1.5 µM, Mean",47.568%
same,in vitro complex I activity relative to solvent control,"[1]; 1.5 µM, Mean of replicates",44.163%
same,in vitro complex I activity relative to solvent control,"[1]; 1.5 µM, single replicate",35.391% and 54.358% and 42.741% and 42.334% and 55.634% and 44.736%
same,in vitro complex I activity relative to solvent control,"[1]; 3 µM, Mean",45.922%
same,in vitro complex I activity relative to solvent control,"[1]; 3 µM, Mean of replicates",43.695%
same,in vitro complex I activity relative to solvent control,"[1]; 3 µM, single replicate",26.286% and 59.986% and 44.813% and 34.824% and 59.458% and 43.485%
same,in vitro complex I activity relative to solvent control,"[1]; 7.5 µM, Mean",35.492%
same,in vitro complex I activity relative to solvent control,"[1]; 7.5 µM, Mean of replicates",37.467%
same,in vitro complex I activity relative to solvent control,"[1]; 7.5 µM, single replicate",33.539% and 39.671% and 39.191% and 30.926% and 39.887% and 35.664%

# Where “and” joins values, the source holds several entries; their conditions need not be identical. Equal entries are not always repeated. Where two headings read alike, the source gives them in different places.
